Patent publication US8329720B1, “Opioid salts and formulations exhibiting abuse deterrent and anti-dose dumping properties” (Pisgah Laboratories, Inc., priority 2007, dated 2012)

Assay: Intrinsic dissolution profile as a function of pH
Type: physicochemical
Details: 0.1N HCl (pH 1), pH 4.5 acetate buffer, pH 6.8 phosphate buffer, water; 37° C.; result in words
Experimental: The opioid salts of the present invention were tested to determine their dissolution profile as a function of pH, and as a function of ethanol concentration in acidic media (dose dumping). To perform these experiments the buffered dissolution media and acidic ethanol solutions were prepared as identified herein, “Preparation of Solutions”. The test procedure was derived from the procedures cited in the United States Pharmacopeia and National Formulary (USP), numbers <1087> and <711>. The dose dumping procedure was adopted from the United States Food and Drug Administration's guidance regarding the dose dumping of oxymorphone. The sampling interval and regimen was defined and each sample analyzed by HPLC. Results from the HPLC analyses were plotted as a function of time and dissolution condition (FIG. 37 through FIG. 97 inclusive, and FIGS. 102-105, 109, 110, 114 and 115). This procedure was used to obtain the pH and dose dumping dissolution profiles disclosed herein. […] All activities within the procedure were conducted and executed for each of the compounds reported herein. Unless otherwise stated HPLC measurements were done and reported at ambient temperature and dissolution testing was done nominally at 37° C. […]

Substance: Hydromorphone Xinafoate
- pH dissolution profile: pH independent release profile

Substance: Morphine Xinafoate
- pH dissolution profile: extended release at pH 1, and independent release as the pH increases
